Consider one molecule from patent publication US20230088214A1, “GLYCOLATE OXIDASE INHIBITORS FOR THE TREATMENT OF DISEASE” (BIOMARIN PHARMACEUTICAL INC., priority 2019, published 2023).

The chains behind the UniProt entries cited, without tags or fusion partners.
UniProt Q9UJM8, whole entry: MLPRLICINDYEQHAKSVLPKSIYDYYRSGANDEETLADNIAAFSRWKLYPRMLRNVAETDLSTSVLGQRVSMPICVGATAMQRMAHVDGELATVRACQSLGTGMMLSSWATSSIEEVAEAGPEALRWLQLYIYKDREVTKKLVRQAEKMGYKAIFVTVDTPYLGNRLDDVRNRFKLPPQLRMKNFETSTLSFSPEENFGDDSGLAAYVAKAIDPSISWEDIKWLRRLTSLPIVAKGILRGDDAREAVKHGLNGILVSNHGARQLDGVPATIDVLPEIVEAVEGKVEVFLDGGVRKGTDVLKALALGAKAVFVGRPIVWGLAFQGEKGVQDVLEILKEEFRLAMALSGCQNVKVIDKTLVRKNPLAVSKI

The assay addresses Human GO (Homo sapiens, UniProt Q9UJM8). The assay is described as follows: GO Enzymatic Assay (Assay 1). Format: biochemical. Conditions: read-out: Range of IC50 values calculated from the enzymatic assays (Assay 1), glycolate substrate, pH 7, percent inhibition relative to DMSO control, tested form: 2,2,2-trifluoroacetate.

Molecules are shown by their SMILES.

Turning to `O=C(O)c1[nH]nnc1SCc1ccc(N2CCCCC2)c2ccccc12`, the IC50 was < 100 nM.
